Calls of active or inactive are those of the source. The calls are words filed in the database; no cut-off is given here.
Target: T1, NAD-dependent protein deacetylase sirtuin-2 (Homo sapiens) (UniProt Q8IXJ6)
T1 sequence (whole entry): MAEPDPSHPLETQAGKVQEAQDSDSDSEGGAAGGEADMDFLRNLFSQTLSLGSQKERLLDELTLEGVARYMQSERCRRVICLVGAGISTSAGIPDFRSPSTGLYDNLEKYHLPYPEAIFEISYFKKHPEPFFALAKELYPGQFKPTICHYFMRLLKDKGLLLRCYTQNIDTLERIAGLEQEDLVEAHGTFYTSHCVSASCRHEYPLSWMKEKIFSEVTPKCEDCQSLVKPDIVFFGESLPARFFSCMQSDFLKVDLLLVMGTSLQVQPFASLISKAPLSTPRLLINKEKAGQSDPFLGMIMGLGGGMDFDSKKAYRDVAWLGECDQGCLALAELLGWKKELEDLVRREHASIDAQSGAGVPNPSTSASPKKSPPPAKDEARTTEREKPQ
Test: Inhibition of SIRT2 (unknown origin) using IU179 as substrate incubated for 30 mins by Fluor de Lys sirtuin assay relative to control

inhibition | SMILES
inactive | CC(=O)c1c(C)[nH]c(C(=O)Nc2ccc3c(c2)CCO3)c1C
inactive | Cc1cc(NC(=O)c2ccc(O)c(Cl)c2)ccc1N1CCCC1=O
inactive | Cc1noc(C)c1NC(=O)COc1ccc2c(c1)CCC(=O)N2
